Source: patent US20110009446A1, “OLIGOMER-GUANIDINE CLASS CONJUGATES” (Nektar Therapeutics, priority 2008, published 2011)

Chains of the proteins cited; added tags and fusions are not shown. Residues count along the entry.
UniProt Q9WTR4, 1-597: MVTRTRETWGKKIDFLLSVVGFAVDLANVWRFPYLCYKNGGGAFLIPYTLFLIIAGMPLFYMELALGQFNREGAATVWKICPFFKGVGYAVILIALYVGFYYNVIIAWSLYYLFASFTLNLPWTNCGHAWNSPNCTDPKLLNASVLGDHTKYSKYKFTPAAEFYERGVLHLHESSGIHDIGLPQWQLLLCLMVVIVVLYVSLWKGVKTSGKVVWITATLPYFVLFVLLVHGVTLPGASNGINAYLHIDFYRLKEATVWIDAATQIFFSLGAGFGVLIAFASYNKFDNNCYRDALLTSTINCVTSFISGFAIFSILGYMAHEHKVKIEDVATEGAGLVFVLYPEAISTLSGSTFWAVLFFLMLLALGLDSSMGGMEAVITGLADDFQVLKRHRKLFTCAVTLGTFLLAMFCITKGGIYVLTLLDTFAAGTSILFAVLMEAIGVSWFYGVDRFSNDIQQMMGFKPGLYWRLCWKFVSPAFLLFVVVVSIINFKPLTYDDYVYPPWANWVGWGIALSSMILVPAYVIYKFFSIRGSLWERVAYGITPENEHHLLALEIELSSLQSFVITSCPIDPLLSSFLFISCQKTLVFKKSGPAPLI

Biological target: T1, noradrenalin transporters (Rattus norvegicus, UniProt Q9WTR4)
T1 construct: membranes prepared from rat forebrain which express noradrenalin transporters; from tissue; host or cells: rat forebrain membranes
Assay: Radioligand binding assay ([3H]-nisoxetine competition) in rat forebrain membranes
Conditions: Ki relative to debrisoquine sulfate
Protocol: The binding affinities of debrisoquine sulfate (parent) and three mPEG conjugates are evaluated using radioligand binding assays in membranes prepared from rat forebrain which express noradrenalin transporters.
Competition binding experiments are conducted by incubating membranes with 1.0 nM of radioligand, [^3H]-nisoxetine, in the presence of variable concentrations (0.1 nM to 3 μM and 1 nM to 30 μM for parent and PEG conjugates, respectively) of test compounds. The reaction is carried out in 50 mM Tris-HCl (pH 7.4), containing 300 mM NaCl and 5 mM KCl at 0-4° C. for 4 hours. Following incubations, the membranes are washed, and the bound radioactivity is measured. Non-specific binding is measured in the presence of excess desipramine (1.0 μM) as the cold ligand; this value is subtracted from the total binding to yield the specific binding at each test compound concentration.
Ki is obtained using the Cheng Prusoff correction using experimental Kd values that are previously determined under these assay conditions.

Q: With `N=C(N)N1CCc2ccccc2C1` [Debrisoquine sulfate, debrisoquine sulfate] as the compound, how does the “Fold Change Relative to Parent” value read?
A: 1

Structures can show the parent of a compound that is named as a salt.
